The values that follow are results of earlier work, collected in patent US11040119B2, “Compositions and methods for assessing neuromuscular function” (Biogen MA Inc., priority 2013, dated 2021).

The conditions of data set [1]: prepared radiopharmaceutical; cited from earlier work.
For data set [2] the following is noted: in vivo; cited from earlier work.

On to ^99mTc tetrofosmin, for which the stability in data set [1] is 6 h. Besides, in data set [2], the biological half-life result was “long” and the extraction efficiency result is given as “high”.
